# ChEMBL document CHEMBL1158373, “GRIND-based 3D-QSAR and CoMFA to investigate topics dominated by hydrophobic interactions: the case of hERG K+ channel blockers” (Eur J Med Chem, 2009)
# By UniProt entry, the sequences of proteins in these tests, tags left out. Where a name states a change or a piece, a line headed by the entry shows the natural chain unless it says otherwise.
# UniProt Q12809: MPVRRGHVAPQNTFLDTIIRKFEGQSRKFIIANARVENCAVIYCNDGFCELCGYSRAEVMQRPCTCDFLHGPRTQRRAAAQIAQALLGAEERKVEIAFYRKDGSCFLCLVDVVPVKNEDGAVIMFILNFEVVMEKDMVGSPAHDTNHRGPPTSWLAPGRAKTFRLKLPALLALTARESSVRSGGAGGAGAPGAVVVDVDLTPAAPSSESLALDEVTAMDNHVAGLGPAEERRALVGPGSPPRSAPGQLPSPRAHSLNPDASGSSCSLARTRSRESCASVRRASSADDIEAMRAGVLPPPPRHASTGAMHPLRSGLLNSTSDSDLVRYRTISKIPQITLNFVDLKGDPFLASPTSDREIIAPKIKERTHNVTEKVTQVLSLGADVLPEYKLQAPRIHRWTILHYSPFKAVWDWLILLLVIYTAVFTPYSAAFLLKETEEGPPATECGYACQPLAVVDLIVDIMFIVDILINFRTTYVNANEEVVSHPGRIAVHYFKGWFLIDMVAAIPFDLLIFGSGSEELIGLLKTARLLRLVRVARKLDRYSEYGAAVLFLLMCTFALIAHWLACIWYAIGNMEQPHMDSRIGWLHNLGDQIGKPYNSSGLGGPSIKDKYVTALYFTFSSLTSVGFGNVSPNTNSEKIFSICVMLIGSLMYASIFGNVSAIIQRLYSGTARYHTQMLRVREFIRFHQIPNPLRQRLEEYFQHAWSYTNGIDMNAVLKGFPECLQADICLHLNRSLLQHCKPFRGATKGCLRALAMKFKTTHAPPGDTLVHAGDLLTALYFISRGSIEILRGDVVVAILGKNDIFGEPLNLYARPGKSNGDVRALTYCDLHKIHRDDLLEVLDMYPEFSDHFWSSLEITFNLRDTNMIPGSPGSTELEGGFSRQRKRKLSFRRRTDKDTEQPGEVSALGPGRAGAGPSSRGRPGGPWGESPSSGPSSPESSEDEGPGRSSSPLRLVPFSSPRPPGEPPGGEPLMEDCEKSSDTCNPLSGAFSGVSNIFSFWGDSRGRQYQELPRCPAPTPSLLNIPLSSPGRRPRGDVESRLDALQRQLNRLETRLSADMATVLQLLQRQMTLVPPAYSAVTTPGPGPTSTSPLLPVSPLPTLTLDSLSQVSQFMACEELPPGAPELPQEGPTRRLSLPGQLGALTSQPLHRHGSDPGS
# Target: Voltage-gated inwardly rectifying potassium channel KCNH2 (Homo sapiens, UniProt Q12809)
row,SMILES,IC50
1,CC(C)COCC(CN(Cc1ccccc1)c1ccccc1)N1CCCC1 (configuration not stated) [BEPRIDIL],0.55 µM
2,C1CCC(C(CC2CCCCN2)C2CCCCC2)CC1 (configuration not stated) [PERHEXILINE],7.76 µM
